{
  "sequences": {"note": "Amino acid sequences for entries named in this document (tags omitted).", "UniProt E9Q401, whole entry": "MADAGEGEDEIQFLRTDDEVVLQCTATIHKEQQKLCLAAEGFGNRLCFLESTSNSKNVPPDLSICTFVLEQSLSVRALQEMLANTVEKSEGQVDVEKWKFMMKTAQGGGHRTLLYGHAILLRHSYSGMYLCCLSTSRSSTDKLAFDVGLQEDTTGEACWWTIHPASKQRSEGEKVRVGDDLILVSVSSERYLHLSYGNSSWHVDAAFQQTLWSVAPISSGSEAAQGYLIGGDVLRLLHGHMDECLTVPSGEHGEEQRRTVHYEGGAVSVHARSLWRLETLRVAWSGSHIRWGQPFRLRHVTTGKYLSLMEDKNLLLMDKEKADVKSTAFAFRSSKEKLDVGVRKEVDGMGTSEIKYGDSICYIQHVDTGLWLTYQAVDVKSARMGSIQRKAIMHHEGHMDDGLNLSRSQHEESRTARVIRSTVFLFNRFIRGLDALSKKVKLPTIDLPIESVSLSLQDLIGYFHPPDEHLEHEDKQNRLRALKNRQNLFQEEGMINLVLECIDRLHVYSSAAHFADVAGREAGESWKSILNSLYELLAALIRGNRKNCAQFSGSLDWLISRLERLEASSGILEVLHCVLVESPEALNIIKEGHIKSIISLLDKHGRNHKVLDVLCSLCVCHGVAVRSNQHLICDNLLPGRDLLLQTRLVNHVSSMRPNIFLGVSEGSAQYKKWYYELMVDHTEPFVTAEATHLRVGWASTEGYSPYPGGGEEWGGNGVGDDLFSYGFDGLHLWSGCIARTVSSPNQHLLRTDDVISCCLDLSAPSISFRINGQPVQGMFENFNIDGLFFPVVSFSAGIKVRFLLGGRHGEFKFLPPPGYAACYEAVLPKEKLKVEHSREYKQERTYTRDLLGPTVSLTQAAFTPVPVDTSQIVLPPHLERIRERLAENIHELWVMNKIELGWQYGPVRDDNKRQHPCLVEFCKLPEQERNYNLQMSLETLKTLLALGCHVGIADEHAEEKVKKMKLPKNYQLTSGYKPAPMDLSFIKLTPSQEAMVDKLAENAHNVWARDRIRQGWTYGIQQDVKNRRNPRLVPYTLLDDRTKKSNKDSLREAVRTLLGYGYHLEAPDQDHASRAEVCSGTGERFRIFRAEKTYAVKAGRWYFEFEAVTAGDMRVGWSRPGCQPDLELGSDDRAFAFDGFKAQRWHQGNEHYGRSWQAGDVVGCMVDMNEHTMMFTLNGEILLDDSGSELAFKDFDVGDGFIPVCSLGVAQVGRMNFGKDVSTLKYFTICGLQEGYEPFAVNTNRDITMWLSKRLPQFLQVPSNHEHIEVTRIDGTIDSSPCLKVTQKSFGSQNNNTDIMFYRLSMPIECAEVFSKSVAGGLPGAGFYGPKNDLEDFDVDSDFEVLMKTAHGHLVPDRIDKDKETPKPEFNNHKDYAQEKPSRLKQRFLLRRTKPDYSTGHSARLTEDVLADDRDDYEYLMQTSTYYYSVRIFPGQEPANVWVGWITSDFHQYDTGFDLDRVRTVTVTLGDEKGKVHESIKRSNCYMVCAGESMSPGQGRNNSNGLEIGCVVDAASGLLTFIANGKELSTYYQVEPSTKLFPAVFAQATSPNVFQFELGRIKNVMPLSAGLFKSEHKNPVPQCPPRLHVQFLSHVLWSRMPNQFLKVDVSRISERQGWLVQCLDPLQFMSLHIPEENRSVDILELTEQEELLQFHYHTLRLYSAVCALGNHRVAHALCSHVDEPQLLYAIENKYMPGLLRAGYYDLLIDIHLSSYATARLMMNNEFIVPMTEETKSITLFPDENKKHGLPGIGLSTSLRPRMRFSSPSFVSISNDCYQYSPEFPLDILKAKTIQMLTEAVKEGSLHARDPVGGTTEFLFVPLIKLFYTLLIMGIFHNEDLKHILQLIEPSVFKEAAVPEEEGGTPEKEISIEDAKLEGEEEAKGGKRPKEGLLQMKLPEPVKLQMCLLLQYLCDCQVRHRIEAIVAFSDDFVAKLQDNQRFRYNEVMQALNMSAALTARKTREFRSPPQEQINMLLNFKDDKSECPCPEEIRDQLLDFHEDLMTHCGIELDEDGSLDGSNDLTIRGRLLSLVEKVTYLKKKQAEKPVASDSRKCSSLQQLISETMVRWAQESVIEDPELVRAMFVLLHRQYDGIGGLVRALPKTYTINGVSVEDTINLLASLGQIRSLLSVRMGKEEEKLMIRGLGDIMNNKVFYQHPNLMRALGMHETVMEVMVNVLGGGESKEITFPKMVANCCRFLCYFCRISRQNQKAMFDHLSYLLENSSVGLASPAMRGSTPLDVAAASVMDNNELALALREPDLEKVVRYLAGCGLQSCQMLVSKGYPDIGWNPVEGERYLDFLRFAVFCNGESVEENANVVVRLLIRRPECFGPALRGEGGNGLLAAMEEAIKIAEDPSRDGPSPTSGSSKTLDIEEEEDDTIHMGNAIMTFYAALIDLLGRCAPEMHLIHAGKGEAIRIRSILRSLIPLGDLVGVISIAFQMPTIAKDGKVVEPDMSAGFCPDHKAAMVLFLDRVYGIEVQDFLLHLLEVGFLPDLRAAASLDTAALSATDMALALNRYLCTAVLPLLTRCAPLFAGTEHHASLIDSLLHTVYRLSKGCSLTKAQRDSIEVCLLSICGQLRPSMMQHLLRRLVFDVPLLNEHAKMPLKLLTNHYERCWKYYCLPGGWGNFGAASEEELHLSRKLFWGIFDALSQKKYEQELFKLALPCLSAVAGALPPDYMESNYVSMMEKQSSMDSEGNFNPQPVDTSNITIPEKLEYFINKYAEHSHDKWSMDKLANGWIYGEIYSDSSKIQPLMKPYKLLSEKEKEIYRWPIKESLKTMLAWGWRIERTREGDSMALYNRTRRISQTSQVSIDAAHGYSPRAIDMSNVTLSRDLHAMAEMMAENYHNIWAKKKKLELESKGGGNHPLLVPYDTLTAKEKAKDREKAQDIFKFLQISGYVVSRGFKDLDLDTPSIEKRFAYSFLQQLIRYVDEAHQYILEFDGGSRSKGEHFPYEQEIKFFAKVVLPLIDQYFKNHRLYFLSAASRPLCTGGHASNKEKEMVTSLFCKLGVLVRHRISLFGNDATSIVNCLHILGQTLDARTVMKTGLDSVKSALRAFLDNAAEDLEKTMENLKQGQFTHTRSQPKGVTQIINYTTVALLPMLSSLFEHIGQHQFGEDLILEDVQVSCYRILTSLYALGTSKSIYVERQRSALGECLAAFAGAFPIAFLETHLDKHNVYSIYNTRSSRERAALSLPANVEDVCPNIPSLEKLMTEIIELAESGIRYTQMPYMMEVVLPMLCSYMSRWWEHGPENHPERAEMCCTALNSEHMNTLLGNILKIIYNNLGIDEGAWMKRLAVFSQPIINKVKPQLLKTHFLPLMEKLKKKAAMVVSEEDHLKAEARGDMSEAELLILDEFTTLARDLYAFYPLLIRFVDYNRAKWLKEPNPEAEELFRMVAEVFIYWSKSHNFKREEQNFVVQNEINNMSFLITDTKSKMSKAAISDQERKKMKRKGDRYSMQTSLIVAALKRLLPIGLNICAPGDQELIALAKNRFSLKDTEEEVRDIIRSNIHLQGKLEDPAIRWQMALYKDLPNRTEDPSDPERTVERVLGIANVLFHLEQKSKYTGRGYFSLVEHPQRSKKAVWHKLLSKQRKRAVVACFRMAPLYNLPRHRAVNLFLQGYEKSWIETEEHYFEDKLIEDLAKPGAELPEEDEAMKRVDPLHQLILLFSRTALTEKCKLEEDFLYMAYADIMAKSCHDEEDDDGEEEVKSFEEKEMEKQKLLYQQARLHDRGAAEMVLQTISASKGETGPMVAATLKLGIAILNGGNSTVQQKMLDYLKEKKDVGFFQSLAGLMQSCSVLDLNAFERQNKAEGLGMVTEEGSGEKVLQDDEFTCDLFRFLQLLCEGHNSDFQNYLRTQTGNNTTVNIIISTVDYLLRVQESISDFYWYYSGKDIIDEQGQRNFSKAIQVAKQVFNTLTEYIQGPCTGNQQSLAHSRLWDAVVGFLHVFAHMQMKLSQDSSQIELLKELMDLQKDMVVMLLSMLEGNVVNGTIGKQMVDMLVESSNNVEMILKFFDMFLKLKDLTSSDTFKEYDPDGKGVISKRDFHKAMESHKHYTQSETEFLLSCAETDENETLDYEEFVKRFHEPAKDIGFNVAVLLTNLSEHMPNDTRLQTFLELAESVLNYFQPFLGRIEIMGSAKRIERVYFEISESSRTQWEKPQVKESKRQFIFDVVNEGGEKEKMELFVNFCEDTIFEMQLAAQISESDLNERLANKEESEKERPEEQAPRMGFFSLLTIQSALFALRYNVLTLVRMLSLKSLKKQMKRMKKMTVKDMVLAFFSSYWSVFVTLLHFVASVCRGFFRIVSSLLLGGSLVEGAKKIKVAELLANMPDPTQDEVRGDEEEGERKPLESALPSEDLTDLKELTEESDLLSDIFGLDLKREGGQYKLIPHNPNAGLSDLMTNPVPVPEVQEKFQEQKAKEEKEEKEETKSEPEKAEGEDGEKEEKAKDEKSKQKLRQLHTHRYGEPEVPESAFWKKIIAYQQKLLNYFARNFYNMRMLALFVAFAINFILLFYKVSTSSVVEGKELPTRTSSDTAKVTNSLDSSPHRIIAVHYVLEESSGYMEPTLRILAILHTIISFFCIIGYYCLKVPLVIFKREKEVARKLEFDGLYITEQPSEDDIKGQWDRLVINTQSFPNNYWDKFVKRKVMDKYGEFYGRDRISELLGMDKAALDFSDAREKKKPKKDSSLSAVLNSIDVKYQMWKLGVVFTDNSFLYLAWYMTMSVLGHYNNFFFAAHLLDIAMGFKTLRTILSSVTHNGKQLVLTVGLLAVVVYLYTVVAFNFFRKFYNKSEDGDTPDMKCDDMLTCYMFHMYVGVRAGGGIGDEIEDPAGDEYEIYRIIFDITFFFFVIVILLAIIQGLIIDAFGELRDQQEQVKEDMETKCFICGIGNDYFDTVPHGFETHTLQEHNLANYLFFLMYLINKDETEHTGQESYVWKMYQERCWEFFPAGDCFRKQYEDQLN"},
  "source": "patent US11129871B1",
  "about": "“Compositions and methods for treating and preventing endoplasmic reticulum (ER) stress-mediated kidney diseases” (Washington University, priority 2018, dated 2021)",
  "biological_target": "T1, RyR2 (Mus musculus, UniProt E9Q401)",
  "T1 construct": "Cultured primary podocytes from Tg-WT and Tg-C321R mice at P27 were treated with 5 μM K201 or DMSO; endogenous in cells; host or cells: mouse primary podocytes from Tg-WT and Tg-C321R mice at P27",
  "assay": "Western blot of p-RyR2 (S2808) and RyR in podocyte lysates",
  "format": "cell-based",
  "settings": "5 μM K201, 24 hours, Tg-C321R podocytes",
  "data": [
    {"smiles": "COc1ccc2c(c1)CN(C(=O)CCN1CCC(Cc3ccccc3)CC1)CCS2", "note": "[K201, 4-[-3{1-(4-Benzyl)piperidinyl}propionyl]-7-methoxy-2,3,4,5-tetrahydro-1,4-benzothiazepine]", "values": [
      {"measurement": "phosphorylation of RyR2 at Ser2808", "value": "inhibited hyperphosphorylation"}
    ]}
  ]
}
